# Values quoted from earlier work, collected in patent US6375634B1, “APPARATUS AND METHOD TO ENCAPSULATE, KILL AND REMOVE MALIGNANCIES, INCLUDING SELECTIVELY INCREASING ABSORPTION OF X-RAYS AND INCREASING FREE-RADICAL DAMAGE TO RESIDUAL TUMORS TARGETED BY IONIZING AND NON-IONIZING RADIATION THERAPY” (Oncology Innovations, Inc., priority 1997, dated 2002).
# Like-named read-outs stand apart in the source and are kept apart here.
# B1: interferon beta: interferon that physiologically opposes proangiogenic factors (protein, UniProt P01574 22-187, looked up)
# Interferon beta: MSYNLLGFLQRSSNFQCQKLLWQLNGRLEYCLKDRMNFDIPEEIKQLQQFQKEDAALTIYEMLQNIFAIFRQDSSSTGWNETIVENLLANVYHQINHLKTVLEEKLEKEDFTRGKLMSSLHLKRYYGRILHYLKAKEYSHCAWTIVRVEILRNFYFINRLTGYLRN
# System: angiogenesis
# Conditions: mouse model, cited from earlier work
molecule,measurement,setting,value
B1,effect on angiogenesis,"continuous low levels, 5,000 to 10,000 units",blocks angiogenesis
same,effect on angiogenesis,higher interferon levels,ineffective
